Literature values, collected in patent publication EP4140474A1, “NUT[…] THE REDUCTION OF OSTE[…] AND INFLAMMATION” (Theracell Advanced Biotechnology S.A., priority 2021, dated 2023).

The chains behind the UniProt entries cited, without tags or fusion partners. Residues count along the entry.
UniProt P23219, 24-599: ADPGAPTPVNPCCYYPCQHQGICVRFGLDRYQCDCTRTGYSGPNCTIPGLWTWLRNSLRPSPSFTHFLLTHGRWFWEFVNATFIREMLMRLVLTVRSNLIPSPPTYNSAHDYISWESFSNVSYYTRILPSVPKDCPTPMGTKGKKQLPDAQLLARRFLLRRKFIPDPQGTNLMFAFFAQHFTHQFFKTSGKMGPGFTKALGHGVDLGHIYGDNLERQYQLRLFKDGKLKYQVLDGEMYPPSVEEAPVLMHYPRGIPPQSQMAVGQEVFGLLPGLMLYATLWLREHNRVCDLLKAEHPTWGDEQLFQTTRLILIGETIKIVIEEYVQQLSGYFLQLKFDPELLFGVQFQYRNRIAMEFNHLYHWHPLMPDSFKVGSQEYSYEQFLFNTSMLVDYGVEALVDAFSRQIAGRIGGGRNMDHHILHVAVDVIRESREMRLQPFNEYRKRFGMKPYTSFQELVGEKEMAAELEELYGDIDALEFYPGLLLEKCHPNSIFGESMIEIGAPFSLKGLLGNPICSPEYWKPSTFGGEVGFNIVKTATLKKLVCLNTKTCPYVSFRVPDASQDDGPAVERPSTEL

Target: cyclooxygenase COX-1 (Homo sapiens, UniProt P23219)

## Oc1ccc(C=Cc2cc(O)cc(O)c2)cc1 [resveratrol]
  IC50: 15 µM
